Assay results reported in patent US11648295B2, “Methods of treating diseases resulting from a maladapted stress response” (Cortene Inc., priority 2016, dated 2023).

How the values were obtained:
CRFR2 = target: T1, CRFR2 (Homo sapiens, UniProt Q13324); assay: in vitro potency / binding potential for CRFR2 (table of FIG. 10); assay type: biochemical
T1 sequence (Q13324 1-411): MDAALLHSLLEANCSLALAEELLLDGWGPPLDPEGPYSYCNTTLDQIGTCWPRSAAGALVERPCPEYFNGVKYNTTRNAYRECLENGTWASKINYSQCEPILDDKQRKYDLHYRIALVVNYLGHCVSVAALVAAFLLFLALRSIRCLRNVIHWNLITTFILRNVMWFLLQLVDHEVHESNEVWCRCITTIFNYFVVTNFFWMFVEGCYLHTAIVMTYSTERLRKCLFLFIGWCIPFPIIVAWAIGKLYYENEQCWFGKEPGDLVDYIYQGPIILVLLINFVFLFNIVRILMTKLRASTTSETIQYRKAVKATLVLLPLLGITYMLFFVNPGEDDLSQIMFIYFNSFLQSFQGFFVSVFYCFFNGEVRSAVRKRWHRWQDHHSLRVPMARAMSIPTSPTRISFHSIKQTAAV

in vivo = conditions: both, Sprague Dawley, rat, plasma, sc

CC[C@H](C)[C@H](NC(=O)[C@@H](NC(=O)[C@H](CC(=O)O)NC(=O)[C@H](CC(C)C)NC(=O)[C@H](CC(C)C)NC(=O)[C@H](CCCNC(=N)N)NC(=O)[C@H](C)NC(=O)[C@H](CC(N)=O)NC(=O)[C@H](CC(N)=O)NC(=O)[C@H](C)NC(=O)[C@H](C)NC(=O)[C@H](CCC(N)=O)NC(=O)[C@H](CCC(N)=O)NC(=O)[C@H](CCCCN)NC(=O)[C@H](CCC(=O)O)NC(=O)[C@H](CCCCN)NC(=O)[C@H](CCC(=O)O)NC(=O)[C@H](CCC(N)=O)NC(=O)[C@H](CCCCN)NC(=O)[C@H](CCC(=O)O)NC(=O)[C@@H](NC(=O)[C@H](CCC(=O)O)NC(=O)[C@@H](NC(=O)[C@@H](NC(=O)[C@H](CCCCN)NC(=O)[C@H](CCCNC(=N)N)NC(=O)[C@H](CC(C)C)NC(=O)[C@H](CC(C)C)NC(=O)[C@H](CCC(N)=O)NC(=O)[C@H](Cc1ccccc1)NC(=O)[C@@H]1CCCN1C(=O)[C@H](CC(C)C)NC(=O)[C@H](CC(=O)O)NC(=O)[C@@H](NC(=O)[C@H](CO)NC(=O)[C@@H](NC(=O)[C@@H]1CCCN1C(=O)[C@@H]1CCCN1C(=O)CNC(=O)[C@@H]1CCC(=O)N1)[C@@H](C)CC)[C@@H](C)CC)C(C)C)[C@@H](C)CC)[C@@H](C)CC)[C@@H](C)O)C(N)=O [CT38]
potency and pharmacokinetic parameters relative to endogenous Ucn2 (CRFR2): approximately equivalent | in vitro binding potential for CRFR2 (CRFR2; table of FIG. 10): maximal, at low concentrations | Tmax (in vivo): ~36 min
